Apparent affinities of Ab-95 variants for a coronavirus HR2 peptide

Antigen: PDVDLGDISGINAS, a 14-residue peptide of the SARS-CoV-2 spike HR2 region.

Parent scFv Ab-95: VH joined to VL by the linker GGGGSGGGGSGGGGS. Changes lie in the light chain CDRs alone.
VH: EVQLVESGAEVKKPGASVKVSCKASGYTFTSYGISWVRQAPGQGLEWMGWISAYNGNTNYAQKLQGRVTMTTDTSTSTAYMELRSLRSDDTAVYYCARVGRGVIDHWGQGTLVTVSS
VL: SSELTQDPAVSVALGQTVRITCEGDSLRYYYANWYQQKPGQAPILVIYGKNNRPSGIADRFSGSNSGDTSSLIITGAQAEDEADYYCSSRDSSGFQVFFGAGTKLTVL

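The starting antibody came from a phage panning campaign against this peptide. AAYL52 was designed without a model: most single CDR substitutions and a random sample of double and triple ones. The assay is AlphaSeq: two haploid yeast populations carry antibody and antigen on their surface. After mating in shaken culture at 30 °C for 16 h, diploids were selected and their barcode pairs sequenced. A regression on co-assayed BCL2-family reference pairs converts the normalised counts of each replicate to an apparent Kd. Each pool was mated in three replicate cultures.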

The parent's light chain CDRs are EGDSLRYYYAN, GKNNRPS, SSRDSSGFQVF; each variant's own CDRs replace them letter for letter.
Values are log10 of the apparent Kd in nM; lower means stronger binding.
"ND" means that the variant was in the library but no mating with the target was seen in that replicate; the authors take this as a sign of poor binding, and no number exists.
Nonspecific signal, from three strains lacking the peptide, appeared in 28% of pairings of library AAYL52, centred on 3.91 (5% of these signals below 2.90); values are not corrected for it. Also given: how often the same scFv was detected with the empty control strains, with their mean in brackets.

| # | CDR-L1 | CDR-L2 | CDR-L3 | log10 Kd, replicates | signal with controls |
|---|---|---|---|---|---|
| 1 | EGHSLRYYYAN | GKNNCPS | SSRDSSGFAVF | ND ND 3.51 | 2 of 9 (3.94) |
| 2 | EGDSLRYYYAN | WKNNLPS | SSRDSSGYQVF | 3.36 4.00 ND | 3 of 9 (3.74) |
| 3 | EGDSARYYYAN | GKNNRPS | SSRDVSGFQVH | 2.65 4.01 3.37 | 3 of 9 (3.83) |
| 4 | YGDSLRWYYAN | YKNNRPS | SSRDSSGFQVF | ND ND ND | 0 of 9 |
| 5 | EGDSLRYYYAN | GRNDRPS | SSRDSSGFYVF | 2.85 2.57 2.41 | 1 of 9 (3.90) |
| 6 | EGDSLKYYYAN | RKNNRPS | SSRDSSGFFVF | ND ND ND | 0 of 9 |
| 7 | EGDSLRYYYAN | GKNNRPS | SIRDSSGFNVF | 2.82 2.47 2.44 | 1 of 9 (4.96) |
| 8 | EGDSFCYYDAN | GKNNRPS | SSRDSSGFQVF | 2.14 2.17 1.77 | 1 of 9 (3.99) |
| 9 | EGDLLRYYYAN | GKNNRPS | SSRDASMFQVF | ND 4.18 ND | 5 of 9 (3.98) |
| 10 | EGDVLRYYSAN | GKNNRPS | SSRDSSGFQAF | 4.50 2.94 3.19 | 3 of 9 (4.22) |
| 11 | EGDSLWIYYAN | GKNNRPS | SSRASSGFQVF | 2.97 ND 3.81 | 3 of 9 (3.87) |
| 12 | EGDGLRYYYAN | CKNNHPS | SSRDSSGFQVF | ND 5.25 ND | 1 of 9 (5.39) |
| 13 | YGDSLRYYYAN | GKNNRPS | SSDDSSGFQVP | 3.48 3.19 2.76 | 2 of 9 (3.52) |
| 14 | EGDSIRYYYAN | GKNNRPS | SSRDSSQYQVF | 2.69 3.08 2.30 | 3 of 9 (4.11) |
| 15 | EADSFRYYYAN | GKNNRYS | SSRDSSGFQVF | 3.95 ND ND | 3 of 9 (3.96) |
| 16 | EGDSLAYYYAN | GKNNPPS | SSPDSSGFQVF | ND ND ND | 2 of 9 (4.56) |
| 17 | EGDSLRYYYGN | GKNNRRL | SSRDSSGFQVF | ND 4.06 ND | 1 of 9 (3.65) |
| 18 | EGISLRYRYAN | GKNNRPS | SSRDSSGFFVF | 2.65 2.31 2.29 | 4 of 9 (3.61) |
| 19 | EGDSLLYYYAN | GKNNRPS | SSCDSSQFQVF | 3.89 2.78 2.78 | 4 of 9 (3.79) |
| 20 | EGDDLRYYYAN | GKNNIPP | SSRDSSGFQVF | 3.78 ND 3.50 | 4 of 9 (4.53) |
| 21 | EGDSLRYTYAN | GKNNCPS | SSRDSSGFQVF | 2.40 2.63 2.34 | 2 of 9 (3.06) |
| 22 | EGHSLFYYYAN | GKNNRPS | SSRDRSGFQVF | 2.35 2.54 1.51 | 4 of 9 (4.28) |
| 23 | EGDSLRYYYAN | AKNDRPS | SSRDSSVFQVF | 3.55 4.82 ND | 2 of 9 (3.89) |
| 24 | EPDSLRYYYAN | GKNNRPS | SSIDSSGFQVF | 3.49 ND 3.88 | 0 of 9 |
| 25 | EGDSLRRYGAN | GKNNRPS | SSRDSSGFQVK | 3.94 3.55 4.30 | 4 of 9 (4.28) |
| 26 | EGDSLSYYYHN | GKNNRPS | SSRDSSGDQVF | 2.34 2.25 2.14 | 3 of 9 (4.36) |
| 27 | EGDSLRPYYAG | GNNNRPS | SSRDSSGFQVF | ND ND ND | 4 of 9 (3.88) |
| 28 | EGDSLRYYYDN | GKNNRPS | SSRDVSGWQVF | ND ND ND | 1 of 9 (4.40) |
| 29 | EGPSLRYYYAN | GKNNRPS | SNRDESGFQVF | 1.81 1.98 1.43 | 0 of 9 |
| 30 | EGDSLRYYYAN | GWNNRPS | SSRDCSGFGVF | 3.78 5.58 3.76 | 5 of 9 (3.74) |
| 31 | EGDSDAYYEAN | GKNNRPS | SSRDSSGFQVF | 3.20 2.91 2.87 | 5 of 9 (4.16) |
| 32 | EGKSLRYYAAN | GKNNRPS | SSRDSFGFQVF | ND 4.93 1.88 | 1 of 9 (3.70) |
| 33 | EGDSLRYYYAN | HKNNRPQ | QSRDSSGFQVF | 2.63 2.67 2.51 | 0 of 9 |
| 34 | EGDSLRYYYAN | KKPNRPS | YSRDSSGFQVF | ND ND ND | 0 of 9 |
| 35 | EGDSLRYTYAN | MKNNRPS | RSRDSSGFQVF | ND ND ND | 1 of 9 (3.35) |
| 36 | EGDSLNYYYAN | GKNNLPS | SSRDSAGFQVF | 2.99 2.74 3.13 | 0 of 9 |
| 37 | EGDSLRYYYAN | GKNLRPS | SHLDSSGFQVF | ND 3.63 ND | 1 of 9 (5.55) |
| 38 | EGDSLRYYYAN | GKYNCPS | SSRMSSGFQVF | 3.37 ND ND | 4 of 9 (3.38) |
| 39 | EGDRLRYYYAN | GKNNRPS | YSRDCSGFQVF | 2.70 3.11 2.01 | 3 of 9 (4.53) |
| 40 | EGDSCEYYYAN | GKNNNPS | SSRDSSGFQVF | ND ND ND | 1 of 9 (3.93) |
| 41 | EGDCLRYYYTN | GKNNRPS | VSRDSSGFQVF | 4.54 3.66 ND | 3 of 9 (4.16) |
| 42 | EGDSLSYFYAN | GKNNRPS | SSRDWSGFQVF | 2.89 3.26 2.87 | 3 of 9 (4.38) |
| 43 | EGDSLRYYNAN | GKINIPS | SSRDSSGFQVF | 4.11 3.28 3.17 | 2 of 9 (3.45) |
| 44 | IGDSLRYYYAK | GKNNRPS | SSRDSSGFQVF | 4.22 3.09 2.42 | 5 of 9 (3.76) |
| 45 | EGDALRYYYAN | GANNRPS | SDRDSSGFQVF | 2.06 1.89 2.01 | 4 of 9 (4.72) |
| 46 | EGDSLRYYYAN | GKNNRPS | SLRCSFGFQVF | 2.50 2.39 2.53 | 2 of 9 (3.75) |
| 47 | EGDFLRYYYAN | GKNNRPS | ISRVSSGFQVF | 3.28 3.05 ND | 2 of 9 (4.24) |
| 48 | EGDSLRYYYAN | GKENRPS | SSRDSSGHQVF | 2.43 3.05 3.32 | 2 of 9 (3.53) |
| 49 | EGDPLRYYYAN | GKPNRPS | CSRDSSGFQVF | ND 4.93 ND | 2 of 9 (4.18) |
| 50 | EGDSYRYYYAP | GKNNRPS | SSRVSSGFQVF | 3.68 ND ND | 3 of 9 (3.63) |

4 of these entries, quoted again:

CDR-L1,CDR-L2,CDR-L3,"log10 Kd, replicates",signal with controls
EGDSLRYYYAN,HKNNRPQ,QSRDSSGFQVF,2.63 2.67 2.51,0 of 9
EGDSLRRYGAN,GKNNRPS,SSRDSSGFQVK,3.94 3.55 4.30,4 of 9 (4.28)
EGDDLRYYYAN,GKNNIPP,SSRDSSGFQVF,3.78 ND 3.50,4 of 9 (4.53)
EGHSLFYYYAN,GKNNRPS,SSRDRSGFQVF,2.35 2.54 1.51,4 of 9 (4.28)

In this assay the parent's reference entry averaged 2.31; its copy inside this library read 2.25.

Source: Engelhart et al. 2022 (doi:10.1038/s41597-022-01779-4), MIT Lincoln Laboratory and A-Alpha Bio; data file from the FLAb repository.